# scFv variants of Ab-14 (heavy chain) against a SARS-CoV-2 spike peptide

All variants were tested on one target, the spike HR2 peptide PDVDLGDISGINAS (SARS-CoV-2).

Parent: Ab-14, a human scFv built as VH, a (GGGGS)3 linker, VL. Only the CDRs of the heavy chain vary.
VH: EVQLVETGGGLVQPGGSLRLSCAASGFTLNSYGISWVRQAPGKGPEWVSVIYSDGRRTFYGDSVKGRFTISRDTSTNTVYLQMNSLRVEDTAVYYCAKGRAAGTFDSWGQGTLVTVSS
VL: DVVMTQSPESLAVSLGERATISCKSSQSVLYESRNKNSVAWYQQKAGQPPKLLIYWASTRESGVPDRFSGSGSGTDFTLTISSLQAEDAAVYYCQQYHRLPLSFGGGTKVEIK

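The parent was found by panning a naive human phage display library on the peptide. The variants were designed computationally from a first round of random CDR variants and then made and measured. Group labels follow the data file (Ctrl: baseline library sampled from a position-specific scoring matrix, with some repeated check sequences; En: ensemble of fine-tuned language models; HC: hill climbing; Gen: genetic algorithm; Gibbs: Gibbs sampling; a sequence that several methods proposed may carry one label only). Affinity was read by AlphaSeq, a pooled yeast mating assay with surface-displayed partners. After mating in shaken culture at 30 °C for 16 h, diploids were selected and their barcode pairs sequenced. Each replicate has its own calibration line, from reference interactions of the BCL2 family. There are six technical replicates.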

Sequences are complete VH domains.
This list holds designs with more than six substitutions.
Kd is apparent (estimated from mating counts) and averaged on the log scale over replicates with a signal. Smaller is tighter.
"no signal" means that the variant was in the library but no mating with the target was seen in any replicate; the authors take this as a sign of poor binding, and no number exists.
The parent sequence was in this pool as ten entries: three were never detected, three once, and four in most replicates, with averages from 2.2 nM to 240 nM.
Nonspecific signal, from three strains lacking the peptide, appeared in 1% of pairings of all heavy chain designs, centred on 120 nM (5% of these signals below 7.0 nM); values are not corrected for it.
The range of this assay differs from that of the first round, and the authors advise against merging the two.
The authors' rule: three or more of the six replicates give a measured affinity, fewer mean a poor binder.

With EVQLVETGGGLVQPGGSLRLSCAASGFSLDEYGISWVRQAPGKGPEWVSVIYADGRRTFYVDDVKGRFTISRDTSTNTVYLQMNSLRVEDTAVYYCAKGNVAGTFDVWGQGTLVTVSS [En_HC] the result was 35 nM (3 of 6 replicates). For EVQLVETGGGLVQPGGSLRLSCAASGEDLDEYGISWVRQAPGKGPEWVSVIYADGRRVVYQDQVKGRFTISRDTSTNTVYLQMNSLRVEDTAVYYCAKGELAGTFAQWGQGTLVTVSS [En_Gibbs], the assay gave no signal (0 of 6 replicates). Variant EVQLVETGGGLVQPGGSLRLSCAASGFDLDEYGVSWVRQAPGKGPEWVSVIYADGMRMAYQNDVKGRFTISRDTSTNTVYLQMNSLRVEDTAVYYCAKGQKGDVFFMWGQGTLVTVSS [En_Gibbs] gave no signal (0 of 6 replicates). For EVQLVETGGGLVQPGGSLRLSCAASGFDLNEYGISWVRQAPGKGPEWVSVIYADGRRTSYIDSVKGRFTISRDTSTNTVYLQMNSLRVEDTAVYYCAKGEAAGTFDVWGQGTLVTVSS [En_HC], the assay gave 250 pM (6 of 6 replicates). Variant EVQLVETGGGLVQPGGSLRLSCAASGFDLNEYGISWVRQAPGKGPEWVSVIYADGRRTSYIDSVKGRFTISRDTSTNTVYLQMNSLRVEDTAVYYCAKGENAGTFDVWGQGTLVTVSS [En_HC] showed 350 pM (6 of 6 replicates). With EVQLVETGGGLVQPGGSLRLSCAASGFDLNEYGISWVRQAPGKGPEWVSVIYADGQRTAYVDSVKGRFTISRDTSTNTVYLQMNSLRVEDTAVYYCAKGENAGTFDVWGQGTLVTVSS [En_Gen] the result was 420 pM (6 of 6 replicates). With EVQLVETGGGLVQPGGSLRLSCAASGFDLNEYGISWVRQAPGKGPEWVSVIYADGRRTAYADNVKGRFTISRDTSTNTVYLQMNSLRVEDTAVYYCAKGETAGTFDLWGQGTLVTVSS [En_Gen] the result was 220 pM (6 of 6 replicates). Variant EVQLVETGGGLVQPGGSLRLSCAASGFDINEYGISWVRQAPGKGPEWVSVIYADGVRTHYVDDVKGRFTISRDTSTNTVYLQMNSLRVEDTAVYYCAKGKHTGMKMAWGQGTLVTVSS [En_Gibbs] gave no signal (0 of 6 replicates).

For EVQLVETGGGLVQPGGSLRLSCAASGFDLDEYGISWVRQAPGKGPEWVSVIYADGSRTAYSKNVKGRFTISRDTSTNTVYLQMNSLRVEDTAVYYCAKGGFDIKVIVWGQGTLVTVSS [En_Gibbs], the assay gave no signal (0 of 6 replicates). Variant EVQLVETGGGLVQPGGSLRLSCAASGFDLNEYGISWVRQAPGKGPEWVSVIYADGVRTAYADSVKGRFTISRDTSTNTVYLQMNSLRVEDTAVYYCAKGTNAGTFDIWGQGTLVTVSS [En_Gen] gave 400 pM (6 of 6 replicates). For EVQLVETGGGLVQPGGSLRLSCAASGFTLNSYRISWVRQAPGKGPEWVSVIYSDGQRTFYQDDVKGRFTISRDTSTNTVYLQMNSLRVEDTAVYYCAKSWEAGTFDSWGQGTLVTVSS [Ctrl], the assay gave no signal (0 of 6 replicates). Variant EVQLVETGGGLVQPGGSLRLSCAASGFDLDEYGISWVRQAPGKGPEWVSVIYADGKRTAYANSVKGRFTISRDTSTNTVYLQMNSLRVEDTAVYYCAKGNVAGTFDLWGQGTLVTVSS [En_Gen] showed 590 pM (6 of 6 replicates). Variant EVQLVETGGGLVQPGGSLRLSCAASGFDLKEYGISWVRQAPGKGPEWVSVIYADGRRTAYDNDVKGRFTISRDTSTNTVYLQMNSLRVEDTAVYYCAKGQVAGIFLDWGQGTLVTVSS [En_Gibbs] gave 19 nM (6 of 6 replicates). For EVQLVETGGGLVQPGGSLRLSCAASGFDLNEYGISWVRQAPGKGPEWVSVIYADGRRTFYADSVKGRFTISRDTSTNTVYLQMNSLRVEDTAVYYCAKGNTAGTFNNWGQGTLVTVSS [En_HC], the assay gave 880 pM (6 of 6 replicates). Variant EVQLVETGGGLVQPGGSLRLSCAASGFSLDEYGISWVRQAPGKGPEWVSVIYADGRRTQYDDSFKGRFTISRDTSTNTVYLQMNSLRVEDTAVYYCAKGTGDFDIEGWGQGTLVTVSS [En_Gibbs] gave no signal (0 of 6 replicates). Variant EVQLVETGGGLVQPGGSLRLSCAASGFDLNEYGISWVRQAPGKGPEWVSVIYADGKRTAYADSVKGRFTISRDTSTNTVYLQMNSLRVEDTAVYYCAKGETAGTFDMWGQGTLVTVSS [En_Gen] showed 380 pM (6 of 6 replicates).

For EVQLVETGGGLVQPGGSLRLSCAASGFDLDEYGISWVRQAPGKGPEWVSVIYADGRRTFYADSVKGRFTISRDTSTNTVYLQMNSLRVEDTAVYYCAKGQNAGTFDQWGQGTLVTVSS [En_HC], the assay gave 1.4 nM (6 of 6 replicates). For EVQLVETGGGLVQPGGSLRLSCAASGFDLDEYGISWVRQAPGKGPEWVSVIYADGMRTYYADSVKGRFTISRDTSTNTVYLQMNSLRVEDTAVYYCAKGEVAGTFDIWGQGTLVTVSS [En_Gen], the assay gave 400 pM (6 of 6 replicates).

A selection of 2 entries from above:

VH,group,Kd,seen in
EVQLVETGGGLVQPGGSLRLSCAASGFDLDEYGISWVRQAPGKGPEWVSVIYADGMRTYYADSVKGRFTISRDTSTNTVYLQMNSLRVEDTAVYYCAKGEVAGTFDIWGQGTLVTVSS,En_Gen,400 pM,6 of 6
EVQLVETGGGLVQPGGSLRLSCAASGFDLDEYGISWVRQAPGKGPEWVSVIYADGSRTAYSKNVKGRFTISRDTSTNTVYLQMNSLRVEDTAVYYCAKGGFDIKVIVWGQGTLVTVSS,En_Gibbs,no signal,0 of 6

Values reported by Li et al. 2023, doi:10.1038/s41467-023-39022-2 (FLAb copy).